Consider one substance from US12005066B2, “Cobinamide compounds as a cyanide, sulfide, or methane-thiol antidote” (dated 2024).

A short description of this test: Mouse lethal cyanide inhalation model. The note with it: observed for at least two weeks.

Turning to di-(5-amino-tetrazole)-cobinamide, the condition of survivors entry is on record as “all appeared normal”.
